# Antibody variant affinities, Ab-91 heavy chain, assay 2

The measurements come from Engelhart et al. 2022 (doi:10.1038/s41597-022-01779-4) through the FLAb antibody collection.

Antigen: PDVDLGDISGINAS, a 14-residue peptide of the SARS-CoV-2 spike HR2 region.

Parent scFv Ab-91: VL joined to VH by a (GGGGS)3 linker. Changes lie in the heavy chain CDRs alone.
VL: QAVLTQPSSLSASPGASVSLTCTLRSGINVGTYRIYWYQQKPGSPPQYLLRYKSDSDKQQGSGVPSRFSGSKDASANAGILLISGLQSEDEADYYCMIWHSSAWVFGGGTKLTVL
VH: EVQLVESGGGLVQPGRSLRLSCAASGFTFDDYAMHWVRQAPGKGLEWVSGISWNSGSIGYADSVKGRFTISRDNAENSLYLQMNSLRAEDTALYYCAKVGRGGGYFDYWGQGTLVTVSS

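The starting antibody came from a phage panning campaign against this peptide. AAYL51 was designed without a model: most single CDR substitutions and a random sample of double and triple ones. The scFvs were displayed on barcoded MATa yeast, the peptide on MATalpha yeast. Binding brings cells together so that they mate, and sequencing counts the barcode pairs among the diploids. A regression on co-assayed BCL2-family reference pairs converts the normalised counts of each replicate to an apparent Kd. Mating was done three times.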

Positions count from residue 1 of the parent VH; I51C puts C in place of I. This list gathers variants with a substitution at I58 (VH, numbered from residue 1). Numbers give log10(Kd / nM), so 0 is 1 nM and 3 is 1 µM. Smaller is tighter. A mean of the replicates is given; it leaves out those without a signal. An entry "nd" has no value in the source: the pair was not observed among the diploids in that replicate. This suggests poor binding but is not conclusive. Background: pairings of library AAYL51 with three empty control strains gave a value in 21% of cases (median 4.54, 5th percentile 3.26). Values in that range, when seen in few replicates, are hard to tell from nonspecific mating.

I51C/I58K/K65N: 3.34, 3.17, 3.57 (mean 3.36).
S57C/I58N/Y108W: nd, nd, nd.
I51C/I58G/Y105I: nd, nd, nd.
D30C/I58Q/G100I: nd, nd, nd.
I51C/I58Q/G59Y: nd, nd, nd.
S55H/I58F/Y60D: nd, nd, nd.
Y32P/I58G/K65S: 3.91, 3.88, nd (mean 3.89).
A33W/S57A/I58N: 4.62, 6.06, nd (mean 5.34).
I58R/S63Y/R101L: 1.23, 1.41, 0.82 (mean 1.15).
I58S: 1.34, 1.32, 0.86 (mean 1.17).
S57A/I58H/A61S: 1.01, 1.09, 0.55 (mean 0.88).
A33L/I58V/S63L: 3.78, nd, nd.
W53A/I58K/K65E: 2.00, 2.17, 2.35 (mean 2.17).
Y32E/I58Y/Y105K: 3.63, nd, nd.
W53T/I58S/V64L: 1.32, 1.65, 0.90 (mean 1.29).
Y32K/S55V/I58V: 3.95, 5.57, 4.94 (mean 4.82).
H35P/S57Q/I58Q: 4.39, nd, nd.
S55D/I58P/V64W: 4.75, nd, nd.
G56I/I58R/V64A: nd, nd, nd.
F29N/N54G/I58H: nd, nd, nd.
G26F/Y32K/I58G: nd, nd, nd.
Y32Q/I58S/Y105G: 3.56, nd, nd.
S55R/I58Y/Y105T: nd, nd, nd.
S52M/I58E/V99R: nd, nd, nd.
G26Q/M34E/I58C: 3.48, 3.55, 3.41 (mean 3.48).
G56V/I58N/F106G: 0.77, 0.66, 0.50 (mean 0.64).
S52R/G56V/I58C: nd, nd, nd.
I58G/K65S/D107K: 6.11, nd, 5.38 (mean 5.75).
D31K/S57P/I58K: 1.95, 2.27, 1.57 (mean 1.93).
H35I/I58R/Y108N: 4.86, 6.14, 4.96 (mean 5.32).
F27D/I58V/V99Y: nd, nd, nd.
D31H/I58W/Y60F: 2.00, 2.68, 0.85 (mean 1.84).
I58Y: 1.40, 1.53, 0.99 (mean 1.31).
F29C/I58Q: 3.90, 4.24, nd (mean 4.07).
M34Q/W53N/I58P: 5.25, 5.06, nd (mean 5.15).
I58M/Y60D/G103E: 6.10, 4.58, nd (mean 5.34).
I51M/I58F: nd, nd, nd.
N54R/I58G/D62K: 5.02, 6.05, nd (mean 5.54).
I58M/V64K: nd, nd, nd.
A33Q/G56L/I58D: nd, nd, nd.
N54P/I58H/S63N: 4.92, nd, nd.

The closing 4 entries, repeated:

changes	log10 Kd, replicates	log10 Kd (nM), mean
N54R/I58G/D62K	5.02, 6.05, nd	5.54
I58M/V64K	nd, nd, nd	nd
A33Q/G56L/I58D	nd, nd, nd	nd
N54P/I58H/S63N	4.92, nd, nd	4.92